{
  "sequences": {"note": "Chains of the proteins cited; added tags and fusions are not shown.", "UniProt Q08499, whole entry, species assumed": "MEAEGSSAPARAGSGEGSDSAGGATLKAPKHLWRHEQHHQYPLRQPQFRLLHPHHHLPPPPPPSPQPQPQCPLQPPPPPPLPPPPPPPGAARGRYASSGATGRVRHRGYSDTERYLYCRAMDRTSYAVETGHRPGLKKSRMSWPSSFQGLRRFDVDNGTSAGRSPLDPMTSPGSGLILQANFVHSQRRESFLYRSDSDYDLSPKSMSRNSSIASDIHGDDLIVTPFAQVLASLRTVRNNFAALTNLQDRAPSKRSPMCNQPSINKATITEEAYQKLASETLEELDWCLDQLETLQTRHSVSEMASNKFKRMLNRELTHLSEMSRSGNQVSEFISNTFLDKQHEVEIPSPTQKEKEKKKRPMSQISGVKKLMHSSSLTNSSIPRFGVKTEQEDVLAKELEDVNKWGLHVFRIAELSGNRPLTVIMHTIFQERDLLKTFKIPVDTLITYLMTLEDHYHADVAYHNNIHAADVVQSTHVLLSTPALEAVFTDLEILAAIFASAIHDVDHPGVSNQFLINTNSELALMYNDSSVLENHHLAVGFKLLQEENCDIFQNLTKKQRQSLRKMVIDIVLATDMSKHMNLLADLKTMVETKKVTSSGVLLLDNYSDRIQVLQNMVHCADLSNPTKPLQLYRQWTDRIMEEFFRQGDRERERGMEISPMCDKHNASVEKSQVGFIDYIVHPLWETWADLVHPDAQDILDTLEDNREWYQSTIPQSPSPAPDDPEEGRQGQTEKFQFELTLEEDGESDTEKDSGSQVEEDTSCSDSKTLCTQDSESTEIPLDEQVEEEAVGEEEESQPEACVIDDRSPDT"},
  "source": "patent US11839614B2",
  "about": "“Methods for treating or mitigating cardiotoxicity characterized by inhibition of adenosine A2 signaling and/or adenosine A2 receptor expression” (INTRA-CELLULAR THERAPIES, INC., priority 2018, dated 2023)",
  "key": {"[1]": {"system": "all other PDE enzyme families", "text": "(§1) Additional pharmaceuticals used in the following examples are dobutamine (Hospira Inc., Lake Forest, Ill.), esmolol HCl (Mylan, Rockford, Ill.), MRS1754 (Tocris Bioscience, Bristol, UK), and Hespan (6% Hetastarch in 0.9% NaCl B. Braun Medical Inc., Bethlehem, Pa.)."}, "[2]": {"system": "rabbit heart and vasculature", "assay": "Anesthetized rabbit pressure-volume hemodynamics with or without esmolol or MRS-1754", "assay_type": "in vivo", "details": "0.1 mg/kg i.v. bolus alone", "protocol": "Cyclic AMP is generated largely by transmembrane adenylyl cyclases activated via stimulatory G protein (Gs), with β-adrenergic, adenosine (primarily A2B), glucagon, prostanoids, histamine, and serotonin all coupling to Gs in cardiomyocytes. The present studies focus on beta-adrenergic and adenosine receptors, and for the latter, concentrated on the A2B receptor, which has been reported to directly stimulate cAMP-dependent contractility. Anesthetized rabbits are administered a bolus intravenous Compound 1 at 0.1 mg/kg (dose based on dog results) with or without prior treatment with the selective β1-blocker esmolol or the adenosine A2BR blocker MRS-1754. […] Relaxation changes are also modest with LV preload (end-diastolic and volume) unaltered; however, the combined vasodilator-inotropic response doubled ventricular/arterial coupling ratio, Ees/Ea.\nNew Zealand White rabbits (male, 2-3 kg) are sedated with 35 mg/kg ketamine and 5 mg/kg xylazine, intubated and ventilated (Model 683, Harvard Apparatus, Holliston, Mass.), with anesthesia maintained with isoflurane inhalation (1-2%). […] The parallel conductance is determined by the hypertonic saline injection method. […]"}, "myocyte cAMP": {"system": "myocyte cAMP", "assay": "Whole cell cAMP in isolated rabbit myocytes", "assay_type": "cell-based", "details": "Compound 1 added to Fsk", "protocol": "Lastly, the effect of Iso, Cil, Compound 1, and their combination on myocyte cAMP was tested. […] This is consistent with prior studies showing locally generated cAMP from β-AR and its modulation by PDE3 occur in local subcellular domains that are not easily detected in whole cell lysates32."}, "adult rabbit myocytes": {"system": "adult rabbit myocytes", "assay": "Contraction and calcium transients in isolated rabbit cardiomyocytes", "assay_type": "cell-based", "details": "FSK+Compound 1 versus FSK+IBMX", "protocol": "To test whether PDE1 inhibition directly impacts cardiomyocyte contraction and calcium transients, studies are carried out on normal adult rabbit myocytes. […] By contrast, Compound 1 has no effect even at 1 mM. […] As PDE1 requires sufficient cAMP and Ca^2+ to be impactful, a dose response was performed to the adenylate cyclase activator, forskolin (FSK) to determine the lowest dose producing a modest but significant inotropic effect (1 μM).\nTime-controls tests are performed comparing Compound 1+FSK with FSK incubation for the identical duration. […] Comparing FSK alone, FSK+Compound 1, and FSK+IBMX, the relative rise in sarcomere shortening percentage with selective PDE1 inhibition is 31% of the rise with IBMX. For calcium relaxation, however, Compound 1 shortens the time constant by 67% of the maximal achieved with IBMX.\nRabbit myocytes were isolated to determine the effect of PDE1 inhibition on cardiomyocyte contraction and whole cell Ca2+ transients, and to compare the results to those with a PDE3 inhibitor, cilostamide (Cil, 1 μM).\nTo compare the influence of PDE1 and PDE3 in modulating β-AR signaling, cells were first exposed to a non-saturating dose of isoproterenol (Iso), then Iso combined with either Cil or Compound 1.\nAn alternative approach to augmenting cAMP independent of […] is to directly stimulate adenylate cyclase using forskolin (Fsk). […]"}, "[3]": {"system": "normal and failing canine hearts", "assay": "Conscious dog pressure-volume hemodynamic analysis, normal and failing hearts", "assay_type": "in vivo", "details": "normal dogs, 10 mg/kg oral", "protocol": "Dogs are studied in the conscious state before and after inducing dilated cardiomyopathy by tachypacing for two weeks at 200 bpm. These dogs are studied on separate days to determine the effects of oral and intravenous Compound 1, and its interaction with 1-adrenergic stimulation.\nOral drug administration: Compound 1 (0.1-10 mg/kg) is administered in gelatin capsules in peanut butter, and hemodynamic data recorded over the ensuing hour. In a subset of animals, dogs are first subjected to dobutamine infusion for 15 minutes (10 g/kg/min), a new baseline was established, and then oral dosages of Compound 1 are administered, with dobutamine subsequently added as a combination treatment 90 min after administration of Compound 1.\nIntravenous drug administration: Compound 1 is dissolved in 0.05 M citrate-phosphate buffer, and administered as a bolus over the course of 1-2 minutes via a central venous catheter. […]\nTo assess the effect of acute PDE1 inhibition, studies were conducted of the pressure-volume relationships in intact dogs with either healthy or failing hearts, and analyzed hemodynamic and cardiac mechanics at baseline and two hours after oral administration of Compound 1 (10 mg/kg). […] Load insensitive indexes of contractility (dP/dtmax/IP and PRSW) increased. […]"}, "r-hPDE1B": {"target": "r-hPDE1B (Homo sapiens, UniProt Q01064)", "assay": "biochemical", "text": "as §1"}, "PDE4D": {"target": "PDE4D (Homo sapiens, UniProt Q08499)", "assay": "biochemical", "text": "as §1"}},
  "data": [
    {"smiles": "CN1C(=O)c2c(nn(Cc3ccc(-c4cccc(F)n4)cc3)c2Nc2ccccc2)N2C1=N[C@@H]1CCC[C@@H]12", "note": "[Compound 1, (6aR,9aS)-2-(4-(6-fluoropyridin-2-yl)benzyl)-5-methyl-3-(phenyl-amino)-5,6a,7,8,9,9a-hexahydrocyclopenta-[4,5]imidazo[1,2-a]pyrazolo[4,3-e]pyrimidin-4-(2H)-one monophosphate]", "values": [
      {"measurement": "selectivity compared with all other PDE enzyme families", "setting": "[1]", "result": "10^4-3×10^5 fold"},
      {"measurement": "ventricular/arterial coupling ratio, Ees/Ea", "setting": "[2]", "result": "doubled"},
      {"measurement": "cAMP change relative to the maximal change with IBMX added to Fsk", "setting": "myocyte cAMP", "result": "about half the maximal change"},
      {"measurement": "relative rise in sarcomere shortening percentage, as share of the rise with IBMX", "setting": "adult rabbit myocytes", "result": 31, "unit": "%"},
      {"measurement": "load insensitive indexes of contractility (dP/dtmax/IP and PRSW)", "setting": "[3]", "result": "increased"},
      {"measurement": "Ki", "setting": "r-hPDE1B", "result": 0.38, "unit": "nM"},
      {"measurement": "Ki", "setting": "PDE4D", "result": 33, "unit": "nM"}
    ]}
  ]
}
